Results on one compound are retold here after US11779630B2, “Peptides and methods of using the same” (SERPIN PHARMA, LLC, priority 2020, dated 2023).

Assay [1] deals with adult dorsal root ganglion (DRG) neurons. The assay can be described thus: Sprouting / neurite outgrowth of cultured primary adult DRG neurons. The settings on record: 100 or 500 ng/mL, 48 hours (and 96 hours), phase contrast images (FIG. 6A-6B).
A further assay relates to IMG microglial cells. As to the kind of experiment: Western blot of LRP1 and LC3 II/I in LPS activated IMG microglial cells. The conditions noted are these: 100 μg/ml before LPS 100 ng/ml for 24 hours. (In western blotting, separated proteins are transferred to a membrane and probed.)
In assay [2] the test system is mice, formalin pain model. The assay can be described thus: Formalin pain test. The format is in vivo. The conditions noted are these: 50 μg subcutaneously before intraplantar formalin.
Assay [3] concerns mice, partial nerve ligation model. As to the kind of experiment: Partial nerve ligation (PNL) neuropathic pain model. The format is in vivo. The settings on record: 50 μg 1 hour prior to surgery; days 1, 3, 6, 8.
A further assay deals with NFκB. The assay can be described thus: NFκB reporter assay (THP1-XBlue-MD2-CD14 cells) stimulated with LPS, SEAP readout. The settings on record: LPS stimulation (FIG. 2). A general note: In a reporter assay the amount or activity of a reporter protein is the signal.

Entries after “also recorded” stand apart in the source; their conditions may differ.

Regarding `CCCC[C@H](NC(=O)[C@H](CC(C)C)NC(=O)[C@H](Cc1ccccc1)NC(=O)[C@@H](NC(=O)[C@H](Cc1ccccc1)NC(=O)[C@@H]1CCCN1C(=O)[C@H](CCCCN)NC(=O)[C@H](CC(N)=O)NC(=O)[C@H](Cc1ccccc1)NC(=O)[C@H](CCCCN)NC(=O)[C@@H](NC(C)=O)C(C)C)C(C)C)C(=O)N[C@H](C(=O)N[C@@H](CCC(=O)O)C(=O)N[C@@H](CCC(N)=O)C(=O)N[C@@H](CC(N)=O)C(=O)N[C@H](C(=O)N[C@@H](CCCCN)C(N)=O)[C@@H](C)O)[C@@H](C)CC` [VKFNKPFVFL[Nle]IEQNTK], in assay [1], the “sprouting / neurite outgrowth” value was “robustly promoted sprouting; also recorded: greater neurite outgrowth in these cells compared to both control cells and Nerve Growth Factor (NGF)”. For the same compound, in the assay on IMG microglial cells, the “autophagy induction (LC3II/I ratio)” value is “capable of restoring to near basal levels”. Further, in assay [2], the “first phase of the formalin test (licking)” value is “significantly reduced the first phase; also recorded: reduction of the first phase” and the “start of the second phase of the formalin test” value is on record as “significantly delayed the start of the second phase; also recorded: delay in the second phase”. For the same compound, in assay [3], the “pain threshold, mechanical (Von Frey)” value is reported as “increased the pain threshold of mechanical allodynia” and the “tolerance to heat, thermal (Hargreaves)” value is “increases the tolerance to heat”. The “NFkB reduction compared with unmodified SP16” value in the assay with NFκB is “significantly improved NFkB reduction”.
